Like-named read-outs stand apart in the source and are kept apart here.
Conditions: porcine skin, 16 hours

transdermal delivery rate (low frequency sonophoresis alone): 1.3±0.5%
transdermal delivery rate (low-frequency sonophoresis then sponge spicules of Haliclona sp. (2 mg, cSoSp)): 9.5±1.6%
transdermal delivery rate (microneedle roller (Dermaroller 0.2 mm)): 0.5±0.1%
transdermal delivery rate (microneedle roller and low-frequency sonophoresis): 3.4±0.2%
transdermal delivery rate (sponge spicules of Haliclona sp. alone): 1.3±0.1%
Substance: FITC-Dextran-4K [FD-4K dextran]

Reference: patent US12691175B2, “Drug transdermal delivery system” (Xiamen University, priority 2019, dated 2026)
